Experimental findings from patent publication US7090991B2 (priority 1999, dated 2006) are described below.

Chains of the proteins cited; added tags and fusions are not shown. Lines headed by an entry give the natural chain unless they say otherwise; changes in a name come on top.
UniProt P25105, whole entry, species assumed: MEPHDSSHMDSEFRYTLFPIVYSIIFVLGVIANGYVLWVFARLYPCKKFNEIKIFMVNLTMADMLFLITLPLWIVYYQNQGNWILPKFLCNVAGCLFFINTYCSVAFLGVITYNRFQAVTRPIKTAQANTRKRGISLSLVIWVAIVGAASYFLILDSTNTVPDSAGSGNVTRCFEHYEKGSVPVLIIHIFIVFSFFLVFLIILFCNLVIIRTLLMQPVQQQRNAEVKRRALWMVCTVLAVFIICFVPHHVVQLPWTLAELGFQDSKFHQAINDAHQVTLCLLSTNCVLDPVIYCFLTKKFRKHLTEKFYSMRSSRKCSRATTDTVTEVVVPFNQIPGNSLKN
UniProt P29275: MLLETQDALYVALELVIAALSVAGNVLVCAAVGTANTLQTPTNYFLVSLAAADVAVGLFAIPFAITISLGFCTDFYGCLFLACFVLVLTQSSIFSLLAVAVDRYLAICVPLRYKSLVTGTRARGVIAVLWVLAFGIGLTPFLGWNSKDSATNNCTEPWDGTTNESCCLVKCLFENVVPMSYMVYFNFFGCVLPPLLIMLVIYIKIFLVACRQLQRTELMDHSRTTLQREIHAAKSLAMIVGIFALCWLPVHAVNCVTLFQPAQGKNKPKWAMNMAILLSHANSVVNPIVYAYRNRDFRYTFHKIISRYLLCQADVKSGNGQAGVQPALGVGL
UniProt P30542, whole entry: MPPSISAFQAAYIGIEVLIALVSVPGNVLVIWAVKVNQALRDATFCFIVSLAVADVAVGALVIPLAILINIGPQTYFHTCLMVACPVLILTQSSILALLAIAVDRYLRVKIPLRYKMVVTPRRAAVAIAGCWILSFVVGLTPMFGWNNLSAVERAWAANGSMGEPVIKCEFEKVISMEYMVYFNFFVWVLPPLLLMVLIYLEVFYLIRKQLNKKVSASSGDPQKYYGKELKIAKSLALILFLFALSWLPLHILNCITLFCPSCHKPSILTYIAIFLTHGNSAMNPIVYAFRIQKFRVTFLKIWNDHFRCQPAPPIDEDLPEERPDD

The target in series [1] is T1, Platelet activating factor Receptor (Homo sapiens, UniProt P25105).
T1 construct: expressed in transfected cells; host or cells: Saccharomyces cerevisiae MATα test cells (MFα1-deleted)
Briefly: Test cell + FUS1p-lacZ plasmid, PAF receptor. It counts as cell-based. The conditions noted are these: CY18592, CP1304, saturating or near saturating ligand.

For series [2], the target named is T1, Platelet activating factor Receptor. Description: Test cell + detector cell (FDG), PAF receptor. It counts as cell-based. The conditions noted are these: CY18592, CP1304, saturating or near saturating ligand.
The target of series [3] is Adenosine 2B Receptor (Homo sapiens, UniProt P29275). The conditions noted are these: A2b; CY18634, CP6281; saturating or near saturating ligand; FDG.
In series [4] the target is Adenosine 1 Receptor (Homo sapiens, UniProt P30542). The conditions noted are these: A1; CY18776, CP5095; saturating or near saturating ligand; FDG.

PAF: the “Fold induction, Test Cell + FUS1p-lacZ plasmid” value in series [1] amounted to 44 fold. Moreover, the “Fold induction, Test cell + Detector Cell” value in series [2] amounted to 16 fold.
For NECA, the “Fold induction, Test cell + Detector Cell” value in series [3] is on record as 26 fold; in series [4], 20 fold.
